Reference: article PMC4207771, “Identification and Characterization of Novel Renal Sensory Receptors” (PLoS ONE, 2014)

Target: T1, Olfr31 (Mus musculus, UniProt Q3KPA7)
T1 construct: expressed in transfected cells; host or cells: HEK293T, co-transfected with RTP1S
T1 sequence (Q3KPA7 1-317): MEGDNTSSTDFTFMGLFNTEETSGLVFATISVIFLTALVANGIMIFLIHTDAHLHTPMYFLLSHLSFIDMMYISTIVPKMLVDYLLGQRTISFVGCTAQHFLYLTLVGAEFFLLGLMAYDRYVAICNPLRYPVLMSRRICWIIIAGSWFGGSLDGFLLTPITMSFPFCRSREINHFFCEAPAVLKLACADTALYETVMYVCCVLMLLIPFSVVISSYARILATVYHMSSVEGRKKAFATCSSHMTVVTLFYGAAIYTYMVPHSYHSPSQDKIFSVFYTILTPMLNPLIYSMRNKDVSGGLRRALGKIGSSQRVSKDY
Test: dual-luciferase (cAMP/CREB reporter) ligand screen, Olfr31 in HEK293T cells
Format: cell-based
Set-up: key: ‘+’ or ‘–‘ in each column indicates if the olfactory receptor responded or had no effect to that specific chemical; -: ‘+’ or ‘–‘ in each column indicates if the olfactory receptor responded or had no effect to that specific chemical
Settings: chemicals tested individually, screened at 500uM (* also at 100uM)

| Structure (SMILES) | Olfr31 response in dual-luciferase assay |
| --- | --- |
| C[C@]12CC[C@@H]3c4ccc(O)cc4CC[C@H]3[C@@H]1CC[C@@H]2O [estradiol, reference compound] | - |
| CCCC(CCC)C(=O)O [valproate, reference compound] | - |
